{
  "source": "patent US20240277729A1",
  "about": "“METHODS OF TREATMENT AND PHARMACEUTICAL COMPOSITIONS USING AN SGLT-2 INHIBITOR AND A NEUROLEPTIC AGENT” (Boehringer Ingelheim International GmbH, priority 2011, published 2024)",
  "origin": "cited, not measured here",
  "test_system": "SGLT",
  "conditions": "leading to glucosuria and a decrease in blood glucose concentration; cited from earlier work",
  "data": [
    {"smiles": "O=C(CCc1ccc(O)cc1)c1c(O)cc(O)cc1O[C@@H]1O[C@H](CO)[C@@H](O)[C@H](O)[C@H]1O", "note": "[phlorizin]", "values": [
      {"measurement": "reuptake of glucose from the glomerular filtrate into the blood", "result": "partially inhibit the reuptake of glucose"}
    ]}
  ]
}
